{"source": "paper PMC8245786", "about": "“Comparative Studies on Multi-Component Pharmacokinetics of Polygonum multiflorum Thunb Extract After Oral Administration in Different Rat Models” (Frontiers in Pharmacology, 2021)", "assay_type_in_all_cases": "in vivo", "settings_in_all_cases": "before administration of AE-PM", "key": {"UGT1A1": {"system": "UGT1A1", "test": "Expression level of UGT1A1 in rat liver (UHPLC-MS/MS signature peptide) and correlation with AUC", "experimental": "(§1) The detection method for UGT1A1 and nine other transporter proteins in the liver was comprehensively investigated in our study (35).\n(§2) The sequence of characteristic peptides that corresponded to UGT1A1 and the other nine transporter proteins were based on our previous experiments and listed in Table 3 .\n(§3) Total membrane protein was isolated (in triplicate) from liver tissue samples according to the Native Membrane Protein Extraction Kit protocol. Subsequently, protein concentrations were determined by the BCA Protein Assay Kit. 10 µl of 5 mg/ml (or lower concentration) of a hepatocyte membrane protein incubated with 20 µl of dithiothreitol (100 mM) and 50 µl of ammonium bicarbonate buffer (50 mM, pH 7.8). After incubation at 95°C for 5 min, 20 µl of iodoacetamide (20 mM) was added to the mixture, followed by incubation at 37°C for 20 min in the dark. To concentrate the samples, ice-cold methanol (0.5 ml), chloroform (0.2 ml), and water (0.2 ml) were added. After centrifugation at 4°C for 5 min at 16,000 g, the supernatant was discarded and the pellet was washed once with ice-cold methanol (0.25 ml) and resuspended with 40 µl of reconstitution solution (equal volume of 3% sodium deoxycholate (w/v) and 5 mM ammonium bicarbonate buffer). Finally, the protein sample was digested with 10 µl of trypsin. The protein-to-trypsin ratio was 25:1 (w/w). […]"}, "OATP1A2": {"system": "OATP1A2", "test": "Expression level of OATP1A2 in rat liver (UHPLC-MS/MS signature peptide) and correlation with AUC", "experimental": "as §1, §2, §3"}, "OCT1": {"system": "OCT1", "test": "Expression level of OCT1 in rat liver (UHPLC-MS/MS signature peptide) and correlation with AUC", "experimental": "as §1, §2, §3"}, "MRP2": {"system": "MRP2", "test": "Expression level of MRP2 in rat liver (UHPLC-MS/MS signature peptide) and correlation with AUC", "experimental": "as §1, §2, §3"}, "BSEP": {"system": "BSEP", "test": "Expression level of BSEP in rat liver (UHPLC-MS/MS signature peptide) and correlation with AUC", "experimental": "as §1, §2, §3"}, "MDR1": {"system": "MDR1", "test": "Expression level of MDR1 in rat liver (UHPLC-MS/MS signature peptide) and correlation with AUC", "experimental": "as §1, §2, §3"}, "OATP1A4": {"system": "OATP1A4", "test": "Expression level of OATP1A4 in rat liver (UHPLC-MS/MS signature peptide) and correlation with AUC", "experimental": "as §1, §2, §3"}}, "data": [{"smiles": "S=C=Nc1cccc2ccccc12", "note": "[ANIT, alpha-naphthylisothiocyanate]", "values": [{"measurement": "Reduction of UGT1A1 expression level compared with the control group", "setting": "UGT1A1", "result": 38.22, "unit": "%"}, {"measurement": "Reduction of OATP1A2 expression level compared with the control group", "setting": "OATP1A2", "result": 24.28, "unit": "%"}, {"measurement": "Reduction of OCT1 expression level compared with the control group", "setting": "OCT1", "result": 62.92, "unit": "%"}, {"measurement": "Reduction of MRP2 expression level compared with the control group", "setting": "MRP2", "result": 47.90, "unit": "%"}, {"measurement": "Reduction of BSEP expression level compared with the control group", "setting": "BSEP", "result": 38.15, "unit": "%"}, {"measurement": "Reduction of MDR1 expression level compared with the control group", "setting": "MDR1", "result": 72.37, "unit": "%"}, {"measurement": "Reduction of OATP1A4 expression level compared with the control group", "setting": "OATP1A4", "result": 42.58, "unit": "%"}]}]}
